The values below are quoted from earlier work in patent US20060172006A1, “Sustained-release tramadol formulations with 24-hour clinical efficacy” (priority 2003, published 2006).

Amino acid sequences for entries named in this document (tags omitted).
UniProt P35372, whole entry, species assumed: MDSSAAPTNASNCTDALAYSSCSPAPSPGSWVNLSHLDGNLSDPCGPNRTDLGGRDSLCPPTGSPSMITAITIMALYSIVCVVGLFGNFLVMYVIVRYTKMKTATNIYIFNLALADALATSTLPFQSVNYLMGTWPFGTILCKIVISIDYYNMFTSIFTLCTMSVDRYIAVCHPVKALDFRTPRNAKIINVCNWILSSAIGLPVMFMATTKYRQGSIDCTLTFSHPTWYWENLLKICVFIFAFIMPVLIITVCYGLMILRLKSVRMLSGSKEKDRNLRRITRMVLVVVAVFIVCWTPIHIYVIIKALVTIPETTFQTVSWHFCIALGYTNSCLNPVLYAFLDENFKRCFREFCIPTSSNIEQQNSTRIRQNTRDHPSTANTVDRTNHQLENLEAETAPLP

The target in this series is μ-opioid receptor (Homo sapiens, UniProt P35372). The conditions noted are these: higher affinity than racemic tramadol.

For the compound `CN(C)C[C@H]1CCCC[C@]1(O)c1cccc(O)c1` [mono-O-desmethyltramadol (M1), mono-O-desmethyltramadol], the “Affinity for the μ-opioid receptor relative to racemic tramadol” value is about 200 fold.
